Data: ChEMBL document CHEMBL5058646 (2022)

Columns and labels:
[1] = target: T1, Zinc finger and BTB domain-containing protein 40 (Homo sapiens) (UniProt Q9NUA8); details: SUD4
T1 sequence (whole entry): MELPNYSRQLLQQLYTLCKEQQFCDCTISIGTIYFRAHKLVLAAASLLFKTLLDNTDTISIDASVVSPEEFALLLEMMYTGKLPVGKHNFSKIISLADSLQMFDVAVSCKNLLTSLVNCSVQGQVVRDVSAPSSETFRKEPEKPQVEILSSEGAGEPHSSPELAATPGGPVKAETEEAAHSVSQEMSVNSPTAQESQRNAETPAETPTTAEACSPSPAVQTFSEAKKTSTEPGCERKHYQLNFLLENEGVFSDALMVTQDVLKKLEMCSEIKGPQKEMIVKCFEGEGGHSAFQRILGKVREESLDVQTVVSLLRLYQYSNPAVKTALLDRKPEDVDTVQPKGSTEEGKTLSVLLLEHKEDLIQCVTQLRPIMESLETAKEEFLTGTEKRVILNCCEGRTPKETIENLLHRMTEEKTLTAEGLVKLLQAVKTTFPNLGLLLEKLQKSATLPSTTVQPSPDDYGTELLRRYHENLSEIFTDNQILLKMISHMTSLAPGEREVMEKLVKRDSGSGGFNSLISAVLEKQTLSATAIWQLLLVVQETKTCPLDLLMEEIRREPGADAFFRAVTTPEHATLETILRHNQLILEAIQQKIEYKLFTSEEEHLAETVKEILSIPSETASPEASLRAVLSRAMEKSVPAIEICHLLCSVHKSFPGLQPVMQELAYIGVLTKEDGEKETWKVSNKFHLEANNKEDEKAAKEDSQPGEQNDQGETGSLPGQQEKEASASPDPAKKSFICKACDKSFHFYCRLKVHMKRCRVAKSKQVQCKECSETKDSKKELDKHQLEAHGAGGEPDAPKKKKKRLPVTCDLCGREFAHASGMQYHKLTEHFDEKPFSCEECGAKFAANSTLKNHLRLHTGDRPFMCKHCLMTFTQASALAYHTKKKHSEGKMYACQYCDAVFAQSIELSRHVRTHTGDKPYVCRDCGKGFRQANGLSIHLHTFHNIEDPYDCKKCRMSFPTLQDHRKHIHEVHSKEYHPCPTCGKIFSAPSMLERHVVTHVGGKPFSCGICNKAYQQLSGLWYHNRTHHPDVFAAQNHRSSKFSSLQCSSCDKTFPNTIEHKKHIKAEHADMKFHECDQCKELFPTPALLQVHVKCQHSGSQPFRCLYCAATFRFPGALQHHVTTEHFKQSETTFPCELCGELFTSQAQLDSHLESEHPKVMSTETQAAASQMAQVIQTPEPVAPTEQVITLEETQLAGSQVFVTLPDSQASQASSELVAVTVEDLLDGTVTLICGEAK

[2] = target: T2, Zinc finger and BTB domain-containing protein 2 (Homo sapiens) (UniProt Q8N680); details: SUD4
T2 sequence (whole entry): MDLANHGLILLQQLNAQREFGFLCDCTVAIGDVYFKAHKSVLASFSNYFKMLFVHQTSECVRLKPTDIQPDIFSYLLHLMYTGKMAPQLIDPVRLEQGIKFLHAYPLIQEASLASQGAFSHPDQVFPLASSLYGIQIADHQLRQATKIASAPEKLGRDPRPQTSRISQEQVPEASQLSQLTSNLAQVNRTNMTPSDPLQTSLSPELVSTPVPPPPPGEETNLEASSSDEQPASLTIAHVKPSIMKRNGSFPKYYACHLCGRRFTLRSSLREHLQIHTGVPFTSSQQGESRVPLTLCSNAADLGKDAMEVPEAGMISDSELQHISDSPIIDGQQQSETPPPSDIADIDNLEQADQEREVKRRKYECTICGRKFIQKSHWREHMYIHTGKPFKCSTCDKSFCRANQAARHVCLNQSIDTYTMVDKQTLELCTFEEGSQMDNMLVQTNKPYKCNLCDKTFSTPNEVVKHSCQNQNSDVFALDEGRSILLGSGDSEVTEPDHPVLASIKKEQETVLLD

[3] = target: T3, B-cell lymphoma 6 protein (Homo sapiens, UniProt P41182); details: OCI-Ly1
[4] = target: T4, Zinc finger and BTB domain-containing protein 43 (Homo sapiens) (UniProt O43298); details: SUD4
T4 sequence (whole entry): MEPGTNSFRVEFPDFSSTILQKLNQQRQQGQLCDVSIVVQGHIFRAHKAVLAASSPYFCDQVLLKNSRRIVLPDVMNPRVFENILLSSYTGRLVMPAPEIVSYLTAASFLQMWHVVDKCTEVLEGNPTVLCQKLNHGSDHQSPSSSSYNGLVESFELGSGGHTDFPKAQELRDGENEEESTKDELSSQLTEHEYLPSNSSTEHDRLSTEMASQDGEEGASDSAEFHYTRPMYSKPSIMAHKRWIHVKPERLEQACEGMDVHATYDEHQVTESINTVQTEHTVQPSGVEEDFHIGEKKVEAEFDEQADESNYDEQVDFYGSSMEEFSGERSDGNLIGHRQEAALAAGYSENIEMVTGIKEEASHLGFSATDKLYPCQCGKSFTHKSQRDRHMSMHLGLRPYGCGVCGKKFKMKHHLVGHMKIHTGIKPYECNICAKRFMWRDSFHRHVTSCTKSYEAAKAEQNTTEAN

[5] = target: T3, B-cell lymphoma 6 protein; details: SUD4

- Normalized abundances for DMSO [1]: 1290
- Normalized abundances for compound [1]: 1290
- Normalized abundances for DMSO [2]: 686
- Normalized abundances for compound [2]: 700
- Normalized abundances for DMSO [3]: 1070
- Normalized abundances for compound [3]: 154
- Normalized abundances for DMSO [4]: 635
- Normalized abundances for compound [4]: 643
- Normalized abundances for DMSO [5]: 12100
- Normalized abundances for compound [5]: 5260
Compound: C[C@@H]1CN(c2ncc(Cl)c(Nc3ccc4c(c3)n(CCC(C)(C)O)c(=O)n4C)n2)C[C@H](C)C1(F)F
